Only a part is listed here, and it is no random draw. Some tests of the compounds listed are not included; inactive here does not mean inactive elsewhere. Results filed as inconclusive are left out. Where a call stands in place of a potency, no number is given. Activity calls are given as the source filed them. The call rests on the fitted dose curve; in most records, active means well fitted inhibition curve with a large enough effect; inconclusive means small, poorly fitted or top-dose-only effect; inactive means no such curve, though single readings can be large or run the other way.
Target: Histone-lysine N-methyltransferase EHMT2 (Homo sapiens) (UniProt Q96KQ7)
Assay: qHTS Assay for Inhibitors of Histone Lysine Methyltransferase G9a; further: nearly all actives have a fitted effect of over 75% in size
Conditions: G9a H3K9 monomethylation, AlphaScreen, 2 h; series mostly up to 59 µM
Potency means the concentration at half of the fitted maximal effect.

Sequences of proteins named here, by UniProt entry; tags and fusion partners are left off. Residues count along the entry.
UniProt Q96KQ7, 913-1193 limits assumed: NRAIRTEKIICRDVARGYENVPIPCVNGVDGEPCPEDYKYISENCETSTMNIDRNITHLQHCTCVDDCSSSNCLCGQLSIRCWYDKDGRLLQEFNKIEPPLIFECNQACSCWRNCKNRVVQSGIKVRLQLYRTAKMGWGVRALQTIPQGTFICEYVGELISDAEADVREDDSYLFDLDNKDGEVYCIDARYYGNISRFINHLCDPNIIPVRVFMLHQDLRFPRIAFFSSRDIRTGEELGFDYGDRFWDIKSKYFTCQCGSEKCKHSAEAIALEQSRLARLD

Q: CN1CCCC(OC(=O)C(O)(c2ccccc2)c2ccccc2)C1 (stereo unspecified) was tested. Which activity, negative = inhibition did it give?
A: inactive: -31.5% [at 12.7 µM]

Q: Which activity, negative = inhibition does the source give for CCCCOc1ccccc1C(=O)NCC1(N(C)C)CCCCC1 here?
A: inactive

Q: CN(C)C1(CNC(=O)c2ccccc2[N+](=O)[O-])CCCCC1 was tested. Which activity, negative = inhibition did it give?
A: inactive

Q: How did the activity, negative = inhibition turn out when CN(C)C1CCCC1OC(=O)C(O)(c1ccccc1)c1ccccc1 (stereo unspecified) was run?
A: inactive

Q: CN(C)c1ccc(C(=O)NCC2(N(C)C)CCCCC2)cc1 was tested. Which activity, negative = inhibition did it give?
A: inactive

Q: Cc1cc(C(=O)NCC2(N3CCCCC3)CCCCC2)ccc1[N+](=O)[O-] was tested. Which activity, negative = inhibition did it give?
A: inactive

Q: For CCN1CCCC(OC(=O)C2(O)c3ccccc3C=Cc3ccccc32)C1 (stereo unspecified), which activity, negative = inhibition is on record?
A: inactive

Q: For O=C(NCC1(N2CCCCC2)CCCCC1)c1cccc(Br)c1, which activity, negative = inhibition is on record?
A: inactive

Q: Which activity, negative = inhibition does the source give for COc1ccc(C(=O)NCC2(N(C)C)CCCCC2)cc1 here?
A: inactive: -22.7% [at 2.33 µM]

Q: With CCOc1cccc(C(=O)NCC2(N(C)C)CCCCC2)c1 as the compound, how does the activity, negative = inhibition read?
A: inactive

Q: CN1[C@@H]2CC[C@H]1CC(OC(=O)C(O)(c1ccccc1)c1ccccc1)C2 (stereo partly specified) was tested. Which activity, negative = inhibition did it give?
A: inactive

Q: How did the activity, negative = inhibition turn out when O=C(NCC1(N2CCCCC2)CCCCC1)c1cc([N+](=O)[O-])ccc1Cl was run?
A: inactive

Q: For CN(C)C1(CNC(=O)c2ccccc2F)CCCCC1, which activity, negative = inhibition is on record?
A: inactive

Q: How did the activity, negative = inhibition turn out when Cc1ccc(C(=O)NCC2(N3CCCCC3)CCCCC2)cc1 was run?
A: inactive

Q: How did the activity, negative = inhibition turn out when CC(C)N1C(=O)CC2(CCN(CCOC(=O)C(O)(c3ccccc3)c3ccccc3)CC2)C1=O was run?
A: inactive: 20.1% [at 12.7 µM]

Q: With CCN(CC)CC(C)C(C)OC(=O)C(O)(c1ccccc1)c1ccccc1 (stereo unspecified) as the compound, how does the activity, negative = inhibition read?
A: inactive: 9.67% [at 12.7 µM]

Q: How did the activity, negative = inhibition turn out when CN(C)C1(CNC(=O)c2cccc(Cl)c2)CCCCC1 was run?
A: inactive

Q: Which activity, negative = inhibition does the source give for COc1cc(SC)ccc1C(=O)NCC1(N(C)C)CCCCC1 here?
A: inactive: -11.3% [at 2.33 µM]

Q: CC(C)COc1ccc(C(=O)NCC2(N(C)C)CCCCC2)cc1 was tested. Which activity, negative = inhibition did it give?
A: inactive

Q: For O=C(OC1CN2CCC1CC2)C(CO)(c1ccccc1)c1ccccc1 (stereo unspecified), which activity, negative = inhibition is on record?
A: inactive: -11.9% [at 12.7 µM]

Q: Which activity, negative = inhibition does the source give for COc1cccc(C(=O)NCC2(N3CCOCC3)CCCCC2)c1 here?
A: inactive

Q: With CN(C)c1cccc(C(=O)NCC2(N(C)C)CCCCC2)c1 as the compound, how does the activity, negative = inhibition read?
A: inactive

Q: CC(C)Oc1ccc(C(=O)NCC2(N(C)C)CCCCC2)cc1 was tested. Which activity, negative = inhibition did it give?
A: inactive

Q: For COc1cc(C(=O)NCC2(N(C)C)CCCCC2)cc(OC)c1OC, which activity, negative = inhibition is on record?
A: inactive

Q: How did the activity, negative = inhibition turn out when Cc1cccc(C(=O)NCC2(N(C)C)CCCCC2)c1 was run?
A: inactive

Q: With COc1cc(C(=O)NCC2(N(C)C)CCCCC2)c([N+](=O)[O-])cc1OC as the compound, how does the activity, negative = inhibition read?
A: inactive

Q: Which activity, negative = inhibition does the source give for CN(C)C1(CNC(=O)c2ccc(Br)cc2)CCCCC1 here?
A: inactive

Q: O=C(NCC1(N2CCCCC2)CCCCC1)c1cccc(Cl)c1 was tested. Which Potency did it give?
A: active: 20 µM

Q: COc1ccc(C(=O)NCC2(N(C)C)CCCCC2)cc1Cl was tested. Which activity, negative = inhibition did it give?
A: inactive

Q: With COc1cccc(C(=O)NCC2(N3CCCCC3)CCCCC2)c1 as the compound, how does the activity, negative = inhibition read?
A: inactive

Q: How did the activity, negative = inhibition turn out when COc1ccc(Cl)cc1C(=O)NCC1(N(C)C)CCCCC1 was run?
A: inactive
